# Data as given in PubChem BioAssay AID651725 (National Center for Advancing Translational Sciences (NCATS), 2012).
# The chains behind the UniProt entries cited, without tags or fusion partners.
# UniProt Q15475, whole entry: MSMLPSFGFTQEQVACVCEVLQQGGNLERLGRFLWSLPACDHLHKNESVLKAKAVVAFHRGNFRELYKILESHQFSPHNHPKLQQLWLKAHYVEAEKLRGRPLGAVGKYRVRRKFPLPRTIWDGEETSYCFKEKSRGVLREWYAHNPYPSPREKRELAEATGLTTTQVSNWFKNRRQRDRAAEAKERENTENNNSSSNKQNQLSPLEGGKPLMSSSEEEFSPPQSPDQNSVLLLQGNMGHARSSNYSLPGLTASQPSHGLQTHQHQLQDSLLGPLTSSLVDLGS
# The entries are a selection whose mix differs from that of the whole data set. Activity calls are given as the source filed them. No stated cut-off is given here; in the data, active means activity change below about -65%; inconclusive means mostly about -30% to -63%; inactive means weaker than that.
# Biological target: Homeobox protein SIX1 (Homo sapiens) + Protein phosphatase EYA2 (Homo sapiens) (UniProt Q15475+O00167)
# Assay: qHTS Assay for Inhibitors of the Six1/Eya2 Interaction
# Conditions: AlphaScreen GST-Six1/His-Eya2 binding, biochemical; stronger effect = lower value
# Description: Its expression is low or undetectable in normal adult breast tissue but the gene is over-expressed in 50% of primary breast tumors and 90% of metastatic lesions. […] Similar to Six1, Eya2 is also not expressed in most normal adult tissues, but is reexpressed in cancers. The Six1-Eya interaction is essential for proliferation during embryonic development, and both Six1 and Eya2 have been independently implicated in the same types of cancer. Because Six1 and Eya2 are embryonic genes with little expression in adult tissues, inhibitors of their expression/activity are likely to have limited side effects. Our goal is to identify inhibitors of the Six1/Eya interaction for potential cancer therapy. To this end, we have developed a homogenous AlphaScreen assay targeting the Six1/Eya interaction. We performed a large scale HTS of the Molecular Libraries Small Molecule Repository (MLSMR) to identify inhibitors of the Six1/Eya interaction as potential anti-cancer therapeutics. Compounds identified can also be used as chemical probes to better understand the biological functions of Six1 and Eya. NIH Chemical Genomics Center [NCGC] NIH Molecular Libraries Probe Centers Network [MLPCN] MLPCN Grant: DA033147 Assay Submitter (PI): Rui Zhao, University of Colorado Denver
# The first step of the 5 uL AlphaScreen assay is to dispense assay buffer (50 mM Tris, pH 8.0, 300 mM NaCl, 0.05% BSA, 0.02% Tween 20, 1 mM TCEP) into a Greiner 1536 white solid bottom microtiter plate (789175-F). Five microliters is added to Column 1, 4 uL is added to Column 2 and 3 uL is added to Columns 3 through 48. A 5X protein solution (250 nM GST-Six1 protein + 500 nM His-tagged Eya2 protein) is mixed and 1 uL is dispensed to Columns 3-48. Using a 1536 pintool, 23 nL of compound is transferred to the assay plate. A solution of 5X AlphaScreen beads is mixed (50 ug/mL Glutathione linked donor beads + Nickel chelated acceptor beads) and 1 uL is dispensed to Columns 2-48. The assay plate is incubated for one hour, with a lid, at 37 deg C in the dark. The plate is read using a Perkin Elmer Envision using an AlphaScreen protocol.
# On the % scale 0 is the no-effect control and ±100 the full control effect.
row,Structure (SMILES),activity change
1,CCN(CC)CC(O)COC(=O)C(O)(c1ccccc1)C1CCCCC1 (configuration not stated),inactive: 2.09%
2,O=C(OCCCN1CCCC1)C(O)(c1ccccc1)C1CCCCC1 (configuration not stated),inactive: 3.19%
3,O=[N+]([O-])c1cccc2n[nH]nc12,inactive: 8.7%
4,CC(=O)N1C2C3N(C(C)=O)C1C1N(C(C)=O)C(C(N1C(C)=O)N3C(C)=O)N2C(C)=O,inactive: 6.79%
5,COc1ccccc1OP(C)(=O)Nc1c(C)n(C)n(-c2ccccc2)c1=O (configuration not stated),inactive: 3.86%
6,CCc1ccc(OP(C)(=O)Nc2cccnc2)cc1 (configuration not stated),inactive: 3.39%
7,CCc1nc2c(n1)c1c(non1O)c1c2no[n+]1[O-],inactive: -13.6%
8,Cc1ccc(NP(=O)(Oc2ccccc2)Oc2ccccc2)nc1,inactive: 3.7%
9,CP(=O)(Oc1ccccc1)N1CCOC1=O (configuration not stated),inactive: -0.425%
10,COc1ccccc1OP(C)(=O)Nc1ccccc1Br (configuration not stated),inactive: 10.1%
11,CC(C)(C)c1ccc(OP(C)(=O)O)cc1,inactive: 5.25%
12,Nc1ccc([As](=O)(O)c2ccc(N)cc2)cc1,inactive: 2.29%
13,CP(=O)(Nc1ccc(Cl)cc1)Oc1ccc(F)cc1 (configuration not stated),inactive: 0%
14,CCN(/C(=N/P(=O)(N1CCOCC1)N1CCOCC1)N1CCOCC1)c1ccc(OC)cc1,inactive: 2.77%
15,CN(C)C(=O)OCCc1n(C)cc[n+]1C,inactive: -0.0938%
16,CC(C)c1nc(Nc2ccccc2)n(P(=O)(N(C)C)N(C)C)n1,inactive: -1.16%
17,CN(C)C(=O)c1c([N+](=O)[O-])cc([N+](=O)[O-])cc1[N+](=O)[O-],inactive: -9.67%
18,CC(C)=N/N=C(\N)N[N+](=O)[O-],inactive: 7.1%
19,CC1CCN(C(=O)Oc2c(Cl)cc(Cl)c3cccnc23)CC1,inactive: 6.54%
20,c1cc(-c2nn[nH]n2)ccc1-c1nn[nH]n1,inactive: -10.3%
21,Nc1ccc2c(ccc3cccnc32)n1.O=[N+]([O-])c1cc([N+](=O)[O-])c(O)c([N+](=O)[O-])c1,inactive: -16%
22,O=P1(N(CCCl)CCCl)OCCCS1 (configuration not stated),inactive: 5.61%
23,O=C(Nc1cc([As](=O)(O)O)ccc1O)c1ccccc1,inactive: 5.7%
24,CCOC(=O)c1ccc(NP(C)(=O)Oc2ccc(Cl)cc2)cc1 (configuration not stated),inactive: -2.18%
25,CP(=O)(OC12CC3CC(CC(C3)C1)C2)OC12CC3CC(CC(C3)C1)C2,inactive: -0.0441%
26,CC(C)(C)C(=O)NC(Sc1ccncn1)C(Cl)(Cl)Cl (configuration not stated),inactive: 4.06%
27,O=[N+]([O-])c1ncn(CCn2ncnc2[N+](=O)[O-])n1,inactive: 5.42%
